By UniProt entry, the sequences of proteins in these tests, tags left out.
Melanocortin receptor 4 (Homo sapiens), P32245, UniProt P32245, whole entry, looked up: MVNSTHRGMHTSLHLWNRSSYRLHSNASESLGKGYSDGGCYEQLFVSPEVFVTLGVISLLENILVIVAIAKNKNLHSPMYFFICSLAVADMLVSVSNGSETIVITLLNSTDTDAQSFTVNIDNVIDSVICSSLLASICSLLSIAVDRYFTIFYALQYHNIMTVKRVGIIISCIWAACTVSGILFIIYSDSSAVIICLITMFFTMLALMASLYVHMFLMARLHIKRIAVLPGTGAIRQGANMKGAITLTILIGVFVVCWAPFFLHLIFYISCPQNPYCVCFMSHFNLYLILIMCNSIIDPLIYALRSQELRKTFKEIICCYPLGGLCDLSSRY

# High-throughput results as filed in PubChem BioAssay.
# Hits are enriched below; roughly 4.2% of the tested compounds scored in any of these assays.
# MC4R antagonist – MC4R antagonists of cAMP signaling, primary screen, cell-based, TR-FRET, antagonist arm of biased-ligand search. MC4R-expressing cells, MTII-stimulated cAMP, LANCE TR-FRET. inhibition, % at 6.5 µM. 360,000 tested, 0.48% active;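 active means inhibition above its plate's cutoff, the mean of tested wells on that plate plus 3 SD, cut at about 29% in these data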
#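 System: U2OS cells stably expressing human melanocortin 4 receptor (MC4R). Reagent: Melanotan II challenge after compound preincubation. Doses: 6.5 µM. Times: 30-min compound, 1-h challenge, 1-h detection, room temperature. Measured by: TR-FRET with Eu-cAMP and labeled anti-cAMP, 671 nm. Replicates: singlicate.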
# ALR H2O2 inh – inhibitors of human ALR sulfhydryl oxidase, primary screen, biochemical, H2O2 detection, HRP-luminol luminescence, single point | AID 485317, 2010 | inhibition, % (test concentration not listed) | purified ALR, DTT oxidation | FAD-linked sulfhydryl oxidase ALR (Homo sapiens), P55789 | hit rate 3.8% among 290,000;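 active = mean and each replicate at 75% or more; inconclusive = only one of the two met; inactive = neither met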;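 also: stock transfer was 7.5 nL into about 7.5 µL; 0% = neutral wells and 100% = wells with inactivated enzyme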
# NALP1 yeast inh – NALP1 inflammasome inhibitors in reconstituted yeast, colorimetric, S. cerevisiae, triplicate retest; S. cerevisiae NALP1/ASC/caspase-1 growth, X-gal OD620, 72 h; inhibition, % at 10 µM; 280,000 tested, 0.61% active; in the data active means inhibition mostly above about 24%, no sharp cut-off; inactive means mostly below about 32%
# MC4R ag barr – MC4R agonists recruiting beta-arrestin, primary screen, cell-based, luminescence, agonist arm of biased-ligand search; AID 540308, 2011; Melanocortin receptor 4 (Homo sapiens), P32245; U2OS MC4R beta-arrestin complementation; percent of melanotan II response, DMSO zero; 360,000 tested, 0.98% active; activation, % at 8.9 µM;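 active means activation above a per-plate cutoff, the mean activation of sample wells on that plate plus 3 SD, cut at about 8% in these data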
# HDAC3 inhib – HDAC3 deacetylase inhibitors, primary screen, biochemical, fluorescence, cell-free homogeneous; 320,000 tested, 0.15% active; recombinant HDAC3, fluorogenic peptide/trypsin coupled; inhibition, % at 8.3 µM; AID 2718, 2010; in the data active means inhibition above about 26%, passing the limit was not always enough
# UUG fidelity – modulators of yeast start codon fidelity, primary screen, whole organism, S. cerevisiae, single point, plate reader | AID 602363, 2012 | S. cerevisiae UUG-firefly luciferase reporter, luminescence/redox ratio | activity score, % at 18.7 µM | hit rate 0.13% among 350,000;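 active = replicate mean at a twofold rise or more, about +100% in these data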;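 also: firefly luciferase made from a UUG start codon reports start codon fidelity; reporter light over untreated wells divided by growth signal over untreated wells; some hits fall short of that in this replicate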
# MC4R barr ag – MC4R beta-arrestin agonists, retest, confirmation, cell-based, luminescence, U2OS; shares compounds with MC4R ag barr; AID 602192, 2012; activation, % at 8.9 µM; 2,400 tested, 31% active; U2OS MC4R beta-arrestin recruitment; scaled DMSO 0%, Melanotan II 100%;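 active means mean activation across replicates above the hit cutoff set in the earlier primary screen, cut at about 8% in these data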
# MOR-DOR barr ag – agonists of MOR-DOR heterodimerization, counter-screen for MC4R biased agonist project, cell-based, luminescence | shares compounds with MC4R ag barr | U2OS PathHunter beta-arrestin, beta-gal luminescence; percent of deltorphin B response, DMSO zero | activation, % at 9.2 µM | 2,400 tested, 5.8% active | AID 602194, 2012;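 active means mean activation across replicates exceeds the hit threshold derived in the earlier primary screen, cut at about 18% in these data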
# Numbers stand for hits; 0 = inactive; - = no result.
SMILES,MC4R antagonist,ALR H2O2 inh,NALP1 yeast inh,MC4R ag barr,HDAC3 inhib,UUG fidelity,MC4R barr ag,MOR-DOR barr ag
CN(C)CCNC(=O)c1cccc(-c2cnc3c(NC=O)cc(-c4ccccc4F)cn23)c1,0,-,-,0,-,0,-,-
COc1ccccc1-c1cc(NC=O)c2ncc(-c3ccc(F)cc3)n2c1,0,-,-,17.5,-,0,17.7,0
C[C@H](CO)N1C[C@H](C)[C@@H](CN(C)S(=O)(=O)c2ccc(Cl)cc2)Oc2ccc(NC(=O)CCC(F)(F)F)cc2C1=O,-,-,-,-,-,0,-,-
C[C@@H]1CN([C@H](C)CO)C(=O)c2cc(NS(C)(=O)=O)ccc2O[C@@H]1CN(C)C(=O)Nc1ccc(F)cc1,-,-,-,-,-,0,-,-
CS(=O)(=O)c1ccc(-c2cc(NC=O)c3ncc(-c4ccc(F)cc4)n3c2)cc1,0,-,-,11.3,-,0,0,0
COc1cccc(-c2cnc3c(NC=O)cc(-c4ccc(S(C)(=O)=O)cc4)cn23)c1,0,-,-,0,-,0,-,-
COc1cc(-c2cc(NC=O)c3ncc(-c4cccc(C(F)(F)F)c4)n3c2)cc(OC)c1OC,0,-,-,22.1,-,0,18.7,0
Cc1ccc2nc(-c3ccc(NC(=O)CN4C(=O)NC(C)(c5ccc(OC(F)F)cc5)C4=O)cc3)sc2c1 (stereo not drawn),0,0,0,18.1,0,-,0,0
N#C[C@@H]1[C@H](c2ccc(C#CC3CCCCC3)cc2)[C@H](CO)N1C(=O)c1cccc(F)c1,-,-,-,-,-,0,-,-
CCC(C(=O)Nc1nnc(-c2ccco2)s1)c1ccccc1 (stereo not drawn),0,0,0,10.5,0,0,0,0
O=C(Nc1nnc(CC(c2ccccc2)c2ccccc2)s1)c1ccco1,0,0,0,19.9,0,0,0,0
CCC(c1ccccc1)c1nnc(NC(=O)c2ccco2)s1 (stereo not drawn),0,0,-,0,0,0,-,-
COc1ccc(CN(C)C[C@@H]2Oc3ccc(NC(=O)CCN4CCOCC4)cc3CC(=O)N([C@H](C)CO)C[C@H]2C)cc1,-,-,-,-,-,0,-,-
CC(C)NC(=O)Nc1ccc2c(c1)C(=O)N([C@@H](C)CO)C[C@H](C)[C@H](CN(C)S(=O)(=O)c1cn(C)cn1)OCCCC[C@H](C)O2,-,-,-,-,-,0,-,-
CC(=O)c1ccc(Cc2ccc(C(C)=O)s2)s1,0,-,-,11.0,-,0,11.8,0
Cc1c(C(=O)Nc2ccc(-c3nnc4n3CCCCC4)cc2)oc2c1ccc1ccccc12,0,0,0,11.4,0,0,0,0
Cn1c2ccccc2c2cnn(CC(=O)Nc3ccc(F)cc3F)c(=O)c21,0,0,-,15.7,0,0,0,0
Cn1c2ccccc2c2cnn(CC(=O)Nc3ccccc3Br)c(=O)c21,0,-,-,0,0,-,-,-
COc1ccc(Nc2nc3ccccc3nc2-n2nc(C)cc2C)cc1,0,0,0,0,0,0,-,-
Cc1cc(C)n(-c2nc3ccccc3nc2Nc2ccc3[nH]c(=O)[nH]c3c2)n1,0,0,0,19.0,0,-,9.6,0
O=C1N/C(=C/c2cccn2-c2ccc(F)cc2)C(=O)N1Cc1ccccc1,0,0,0,10.3,0,0,0,0
O=C(O)c1cccc(-n2cccc2/C=C2\NC(=O)N(Cc3ccc(F)cc3)C2=O)c1,0,0,0,0,0,-,-,-
C[C@@H]1CCCCO[C@H](CN(C)Cc2ccc(C(=O)O)cc2)[C@H](C)CN([C@@H](C)CO)C(=O)c2cc(NC(=O)C3CCCCC3)ccc2O1,-,-,-,-,-,0,-,-
CN(C)C(=O)/C(C#N)=C\c1cc(Br)c(Sc2ccc(Cl)cc2)o1,0,93.3,0,13.8,0,-,0,0
CCOc1ccc(Nc2nc(-c3cccnc3)cs2)cc1,0,0,0,24.8,0,0,0,0
SMILES,MC4R antagonist,ALR H2O2 inh,NALP1 yeast inh,MC4R ag barr,HDAC3 inhib,UUG fidelity,MC4R barr ag,MOR-DOR barr ag
Brc1ccc(Nc2nc(-c3cccnc3)cs2)cc1,0,0,0,0,0,-,-,-
C[C@@H]1CN([C@@H](C)CO)C(=O)c2cc(-c3cccnc3)cnc2O[C@H]1CN(C)C(=O)Cc1cccnc1,-,-,-,-,-,0,-,-
COc1ccc(C(=O)CSc2nnc(-c3cc(C)cc(C)c3)o2)cc1,0,0,0,9.8,0,0,0,0
COc1ccc(C(=O)CSc2nnc(CNC(=O)c3ccccc3)o2)cc1,0,0,0,0,0,0,-,-
COc1ccc(C(=O)CSc2nnc(CNc3ccc(C)cc3C)o2)cc1,0,-,0,11.4,0,0,11.1,0
O=C(CCc1nc2ccccc2c(=O)[nH]1)Nc1nnc(SCc2ccccc2)s1,0,0,-,0,0,-,-,-
O=c1[nH]c(CSc2nnc(Nc3ccccc3)s2)nc2ccccc12,0,0,0,9.7,0,0,0,0
N#Cc1ccccc1OCC(=O)Nc1c(C(=O)C2CC2)oc2ccccc12,0,90.0,0,22.1,0,0,8.9,0
Cc1cccc(C)c1NC(=O)c1cn(-c2ccccc2)nc1-c1ccccc1,0,-,0,9.9,0,0,0,0
Cc1ccccc1NC(=O)c1cn(-c2ccccc2)nc1-c1ccccc1,0,0,0,0,0,-,-,-
C[C@@H]1CCCCO[C@H](CN(C)Cc2ccc3c(c2)OCO3)[C@@H](C)CN([C@@H](C)CO)C(=O)c2cc(NS(=O)(=O)c3ccc(Cl)cc3)ccc2O1,-,-,-,-,-,0,-,-
O=C(COC(=O)c1nn(-c2ccccc2C(F)(F)F)cc1O)c1ccc(OC(F)F)cc1,0,0,-,10.5,0,0,0,0
Cc1cc(NC(=O)CSc2nc3cc(C)c(C)cc3cc2C)no1,0,0,0,0,0,0,-,-
Cc1ccc2nc(SCC(=O)Nc3cc(C)on3)c(C)cc2c1,0,-,0,11.1,0,-,0,0
Cc1cccc(NC(=S)NC(C)CCc2ccccc2)c1 (stereo not drawn),0,0,0,21.0,0,0,0,0
Cc1cccc(NC(=O)NC(C)CCc2ccccc2)c1 (stereo not drawn),0,0,0,0,0,0,-,-
Cc1ccc(C)c(Cn2cnc3c(nnn3-c3ccc(F)cc3)c2=O)c1,0,0,0,13.4,0,0,0,0
COc1cccc(-c2nc(NCc3cccnc3)c3ccccc3n2)c1O,0,0,0,15.7,0,0,0,0
